# The list is not random: actives were taken first. Their share in the collection is about 13%.
# miR-21 reporter: miR-21 reporter, rising signal | HeLa miR-21 FLuc reporter, luciferase, 48 h | Potency, µM (doses to about 38.3 µM), inactives show at the top dose reporter change, positive = more light | 340,000 tested, under 10 active | AID 2288; active = well fitted rising curve with a large enough effect; inconclusive = small, poorly fitted or top-dose-only effect; inactive = no such curve, though single readings can be large or run the other way;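 note: % of control where 0% means no effect; miR-21 action dims this reporter so a rising signal means less miR-21 action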
#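 HeLa cells endogenously expressing miR-21, stably carrying CMV-driven firefly luciferase with a downstream miR-21 binding site, 2000 cells/well. Titrations up to approximately 40 uM, 48 hours; luciferase luminescence read.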
# Sfp PPTase inh: blocks B. subtilis Sfp PPTase activity. Q9F4F7. Biochemical Sfp PPTase activity, qHTS. Potency, µM, for inactives: max response, negative = inhibition, usual class: inhibitors. 310,000 tested, 3.5% active. AID 1490; active = well fitted inhibition curve with a large enough effect; inconclusive = small, poorly fitted or top-dose-only effect, or another doubt; inactive = no such curve, though single readings can be large or run the other way;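 also: the enzyme is Sfp with the accession as filed and its product quenches rhodamine fluorescence; potency is read from the fitted curve at half-maximal effect; 0% = enzyme reaction without inhibitor and -100% = no enzyme wells; top concentration of the series not given in the record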
#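 Buffer: 50 mM Hepes-Na pH 7.6, 10 mM MgCl2, 0.01% Nonidet P-40, 0.01% BSA. Enzyme 15 nM, pre-exposed to compound 15 min; substrates then added and fluorescence change tracked over 30 min.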
# KDM4E inh: JMJD2E (human) inhibition | B2RXH2 | JMJD2E catalytic domain, FDH-coupled NADH fluorescence (FDH is formaldehyde dehydrogenase) | Potency, µM (series often up to 57.1 µM), without a hit: top-dose activity change, negative = inhibition, hits mostly inhibitors | 1.6% of 230,000 active | AID 2147; active = well fitted inhibition curve with a large enough effect, not every such curve was filed as active; inconclusive = small, poorly fitted or top-dose-only effect, or another doubt; inactive = no such curve, though single readings can be large or run the other way;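 also: potency is read from the fitted curve at half-maximal effect; 0% = wells with enzyme and -100% = buffer wells without enzyme; nearly all actives have a fitted effect of over 50% in size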
# LMNA splice mod: modulators of lamin A splicing; 0.01% of 200,000 active; HeLa LMNA splicing GFP/RFP minigene ratio, 48 h; Potency, µM (top dose mostly 46.1 µM), without a hit: at the top dose ratio change, negative = inhibition, hits mostly inhibitors; AID 1487; active = well fitted inhibition curve with a large enough effect in the signal ratio, with a control signal flat, not every such curve was filed as active; inconclusive = small, poorly fitted or top-dose-only effect, or effect the other way, or a change in a side signal; the % refers to the signal ratio; also: potency is read from the fitted curve at half-maximal effect; % is scaled to controls: 0 for no effect and ±100 for the full control effect
#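 Read-out is the ratio of GFP to DsRed2 object intensity, acquired by 488 nm laser-scanning cytometry on HeLa lamin A-EGFP minigene reporter cells. Compound incubation 48 hrs at 37 °C in Opti-MEM with 2% FBS; DMSO 0.5% final.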
# G9a block: blocks human histone lysine methyltransferase G9a; Q96KQ7; G9a H3K9 monomethylation, AlphaScreen, 2 h; Potency, µM (titrated, usually from 102 µM), for the others: top-dose activity, negative = inhibition, most hits filed as inhibitors; 8.8% of 350,000 active; AID 504332; also: potency is read from the fitted curve at half-maximal effect; % is scaled to controls: 0 for no effect and ±100 for the full control effect; nearly all actives have a fitted effect of over 75% in size
#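 Compounds were preincubated with 20 nM G9a for 15 min, after which biotinylated H3K9 peptide (500 nM) and SAM (20 uM) started a 2 h room-temperature reaction. Monomethylated product was quantified by antibody-based AlphaScreen chemiluminescence.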
# ALDH1A1 block: ALDH1A1 (human) enzyme inhibition. Purified ALDH1A1, NADH fluorescence, propionaldehyde substrate. Potency, µM (highest dose often 75.3 µM), without a hit: at the top dose activity, negative = inhibition, most hits filed as inhibitors. 7.3% of 220,000 active. AID 1030; active = well fitted inhibition curve with a large enough effect, not every such curve was filed as active; inconclusive = small, poorly fitted or top-dose-only effect, or another doubt; inactive = no such curve, though single readings can be large or run the other way;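 also: potency is read from the fitted curve at half-maximal effect; plate controls were no enzyme wells and a reference inhibitor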
# The depositor's hits bear a star; ? = inconclusive; · = no result; [ ] = another dose, or the depositor's remark. Unless noted, calls follow the shape of the dose curve; as a rule, active = well fitted curve in the direction sought with a large enough effect; inconclusive = small, poorly fitted or top-dose-only effect, or another doubt; inactive = no such curve, though single readings can be large; an effect the other way counts as inactive or inconclusive.
# The first two compounds as a preview:
SMILES,miR-21 reporter,Sfp PPTase inh,KDM4E inh,LMNA splice mod,G9a block,ALDH1A1 block
COc1cc(OC)c(N(C)C(=O)c2nn(C)c3c2CSc2ccccc2-3)cc1Cl,-1%,·,·,·,?,·
CCCOc1ccc(C(=O)NC(=S)N2CCN(c3cc4c(cc3F)c(=O)c(C(=O)O)cn4CC)CC2)cc1,-2%,-6%,·,·,-10%,·

# All compounds of this part (from the top)
SMILES,miR-21 reporter,Sfp PPTase inh,KDM4E inh,LMNA splice mod,G9a block,ALDH1A1 block
COc1cc(OC)c(N(C)C(=O)c2nn(C)c3c2CSc2ccccc2-3)cc1Cl,-1%,·,·,·,?,·
CCCOc1ccc(C(=O)NC(=S)N2CCN(c3cc4c(cc3F)c(=O)c(C(=O)O)cn4CC)CC2)cc1,-2%,-6%,·,·,-10%,·
O=C(NCc1ccccc1)c1ccc2c(c1)sc1nc(-c3ccc(F)cc3)cn12,-2%,·,·,?,6%[59 µM],·
Cc1cc(N(CCO)CCO)ccc1C(c1ccc(N(CCO)CCO)cc1C)c1ccccc1Cl,2%,?,-15%,-29%,7.9µM*,-3%
C/C(=N/NS(=O)(=O)c1cc(C)ccc1C)c1ccncc1,0%,-5%,·,·,40µM*,·
Cn1c(SCc2ccc(C(C)(C)C)cc2)nnc1C1COc2ccccc2O1 (stereo unspecified),5%,-5%,-12%,?,·,?
Nn1c(C2COc3ccccc3O2)n[nH]c1=S (stereo unspecified),-22%,7.1µM*,?,·,2.8µM*,4.5µM*
Cc1cc(C(=O)CN2C(=O)NC(Cc3c[nH]c4ccccc34)C2=O)c(C)n1C (stereo unspecified),-8%,-5%,6%,0%,50µM*,7%
Cc1ccc(Cn2c(SCC(C)C)nc3c2c(=O)[nH]c(=O)n3C)cc1,-7%,35µM*,-3%,2%,?,28µM*
C=CCSc1nc2c(c(=O)[nH]c(=O)n2C)n1C(C)C,-33%,?,-4%,11%,?,3.2µM*
CCCSc1nc2c(c(=O)[nH]c(=O)n2C)n1Cc1ccc(C)cc1,-5%,-4%,2%,9%,6%,4%
COCCSc1nc2c(c(=O)[nH]c(=O)n2C)n1Cc1cccc(C)c1,-18%,12%,2%,1%,23%[59 µM],14µM*
CCCSc1nc2c(c(=O)[nH]c(=O)n2C)n1Cc1ccccc1,-7%,-14%,·,·,-4%,·
C/C=C/Cn1c(SCc2ccc(C)cc2)nc2c1c(=O)[nH]c(=O)n2C,-13%,-18%,-2%,?,25µM*,?
Fc1ccc(-n2ncc3c(NC4CCCCCC4)ncnc32)cc1,-38%,·,·,?,9%[59 µM],·
O=C(NCCC(=O)N1CCC2(CC1)NCCc1[nH]cnc12)c1ccc(F)c(F)c1,-1%,2%,·,·,-6%,·
C=CCn1c(SCc2ccc(Cl)cc2)nc2c1c(=O)[nH]c(=O)n2C,-39%,1%,4%,8%,?,10%
C=CCSc1nc2c(c(=O)[nH]c(=O)n2C)n1Cc1ccc(C)cc1,-16%,-15%,-2%,-14%,14µM*,-11%
C=CCN1C(=O)CSc2ccc(C(=O)NCc3ccco3)cc21,0%,-4%,-3%,5%,40µM*,22µM*
C=CCN1C(=O)CSc2ccc(C(=O)NCCC3=CCCCC3)cc21,19%,-7%,0%,?,2%,13µM*
C=CCn1c(N)c(C(=O)NCCC2=CCCCC2)sc1=S,-59%,25µM*,-14%,-12%,?,3.5µM*
COc1cc(OC)c2c(c1C(CCN1CCCC(C)C1)c1ccc(N(C)C)cc1)OC(=O)CC2c1ccc(N(C)C)cc1 (stereo unspecified),·,-25%,·,·,·,·
COC(=O)c1sccc1NC(=S)N1C(C)CCCC1C (stereo unspecified),-2%,-3%,-4%,-3%[46 µM],10µM*,-9%
COC(=O)c1sccc1NC(=S)Nc1cc(C)ccc1OC,-2%,-11%,-14%,·,50µM*,?
CN(C(=S)NC1=CCS(=O)(=O)C1)C1CCCCC1,-2%,-19%,10%,-1%,10µM*,?
COC(=O)c1sccc1NC(=O)NC1CCCCC1,-13%,18%,-5%,4%[46 µM],-31%,-6%
COC(=O)c1sccc1NC(=S)N(C)C1CCCCC1,-7%,-21%,-5%,14%[46 µM],5%,0.35µM*
CC(=O)N1CCc2cc(S(=O)(=O)NCCC(=O)NC3CCCCCC3)ccc21,-4%,9%,·,·,4%,·
O=C(O)C1CC(CCCP(=O)(O)O)CCN1 (stereo unspecified),·,-1%,·,·,·,·
FC(F)(F)c1cc(-c2ccco2)nc(NCc2cccs2)n1,1%,17%,?,16%,?,8.9µM*
CS(=O)(=O)c1nc(-c2ccco2)cc(C(F)(F)F)n1,?,-10%,?,?,32µM*,?
FC(F)(F)c1cc(-c2ccco2)nc(NCc2ccco2)n1,-5%,1%,?,-7%,?,-17%
CC(=O)c1ccc(NC(=O)Cn2c(-n3nc(C)cc3C)nc(C)c(C)c2=O)cc1,-3%,·,·,1%[46 µM],4µM*,·
Cc1cc(=O)n(CC(=O)Nc2ccc(Cl)c(Cl)c2)c(-n2nc(C)cc2C)n1,-7%,·,·,-21%[46 µM],34%[59 µM],·
Cc1cc(C)n(-c2nc(C)c(C)c(=O)n2CC(=O)Nc2cccc([N+](=O)[O-])c2)n1,8%,·,·,?,6.3µM*,·
CCOc1ccc(Br)cc1CNCCSc1nnnn1-c1ccccc1,-1%,·,·,?,12%[59 µM],·
COc1ccc(N2CCN(C(=O)CSc3nc(-c4ccccc4)no3)CC2)cc1,-7%,·,·,·,-18%[59 µM],·
O=C(NC(Cc1ccccc1)C(=O)O)OCC1c2ccccc2-c2ccccc21 (stereo unspecified),-9%,17%,·,·,-3%,·
CC(C)C[C@@H](NC(=O)OCC1c2ccccc2-c2ccccc21)C(=O)O,·,4%,9%,·,·,13µM*
COc1ccc(Nc2nc3ccccc3n2C)cc1,-54%,16%,·,·,95%,·
COc1ccc(N=Nc2n(C)c3ccccc3[n+]2C)cc1,?,50µM*,?,·,·,·
O=c1cc(-c2cccc(O)c2)oc2c(O)c(O)ccc12,·,?,7.9µM*,·,·,?
Cc1ccc(-c2nc3scc(CCNC(=O)c4cccc(Br)c4)n3n2)cc1,7%,·,·,?,10%[59 µM],·
CCOC(=O)N/N=C/c1ccc(N(CC)CC)cc1O,-20%,-17%,28µM*,?,?,1%
CCN(CC)c1ccc(/C=N/NC(=O)CCC(=O)NCc2ccccc2)c(O)c1,14%,-5%,25µM*,?,16%[59 µM],-11%

# Sfp PPTase inh, what is marked active above.
SMILES,miR-21 reporter,Sfp PPTase inh,KDM4E inh,LMNA splice mod,G9a block,ALDH1A1 block
Nn1c(C2COc3ccccc3O2)n[nH]c1=S (stereo unspecified),-22%,7.1µM*,?,·,2.8µM*,4.5µM*
Cc1ccc(Cn2c(SCC(C)C)nc3c2c(=O)[nH]c(=O)n3C)cc1,-7%,35µM*,-3%,2%,?,28µM*
C=CCn1c(N)c(C(=O)NCCC2=CCCCC2)sc1=S,-59%,25µM*,-14%,-12%,?,3.5µM*
COc1ccc(N=Nc2n(C)c3ccccc3[n+]2C)cc1,?,50µM*,?,·,·,·

# Further entries
SMILES,miR-21 reporter,Sfp PPTase inh,KDM4E inh,LMNA splice mod,G9a block,ALDH1A1 block
CCN(CC)c1ccc(/C=N/NC(=O)CNC(=O)C2COc3ccccc3O2)c(O)c1 (stereo unspecified),15%,17%,·,·,18µM*,·
O=C(CCC(=O)N/N=C/c1c[nH]c2ccccc12)NCc1ccccc1,-3%,5%,-4%,-8%,18%,-6%
CCN(CC)c1ccc(/C=N/Nc2ccc(C)cc2)c(O)c1,-21%,40µM*,?,?,1.8µM*,10µM*
CCN(CC)c1ccc(C=Nc2ccc(C)cc2C)c(O)c1,-5%,-19%,10%,·,·,20µM*
CCN(CC)c1ccc(C=Nc2cc(C)ccc2C)c(O)c1,-7%,-7%,-10%,1%,?,?

# Screening data: PubChem, National Center for Advancing Translational Sciences (NCATS)
